Here are results for two compounds from ChEMBL document CHEMBL5576078, “Discovery of a potent, orally available furopyridine derivative as a novel selective bromodomain and extra-terminal domain (BET)-first bromodomain (BD1) inhibitor” (Bioorg Med Chem Lett, 2024).

This experiment addresses Bromodomain-containing protein 4 (Homo sapiens, UniProt O60885). The experiment in a line: Inhibition of BRD4 BD2 (unknown origin) at 10 uM by TR-FRET assay relative to control.

For the compound `C[C@@H]1CN(S(C)(=O)=O)CCN1Cc1cc2c(=O)n(C)cc(-c3nc(Cl)cn3CC3CCOCC3)c2o1`, the inhibition amounted to 14%.
To `Cc1cc2c(-c3ccco3)cnc(N[C@@H]3CCN(C)C[C@H]3C(=O)NC3CCCCC3)c2[nH]c1=O` belongs 35%.
